# The entries are a selection whose mix differs from that of the whole data set. Some of these compounds have results that are not shown, active ones among them. Activity calls are given as the source filed them. Rule as the data show it: active = activation above about 40%; inconclusive = between about 15% and that limit; inactive = weaker than that.
# Amino acid sequences for entries named in this document (tags omitted).
# UniProt P14416, whole entry: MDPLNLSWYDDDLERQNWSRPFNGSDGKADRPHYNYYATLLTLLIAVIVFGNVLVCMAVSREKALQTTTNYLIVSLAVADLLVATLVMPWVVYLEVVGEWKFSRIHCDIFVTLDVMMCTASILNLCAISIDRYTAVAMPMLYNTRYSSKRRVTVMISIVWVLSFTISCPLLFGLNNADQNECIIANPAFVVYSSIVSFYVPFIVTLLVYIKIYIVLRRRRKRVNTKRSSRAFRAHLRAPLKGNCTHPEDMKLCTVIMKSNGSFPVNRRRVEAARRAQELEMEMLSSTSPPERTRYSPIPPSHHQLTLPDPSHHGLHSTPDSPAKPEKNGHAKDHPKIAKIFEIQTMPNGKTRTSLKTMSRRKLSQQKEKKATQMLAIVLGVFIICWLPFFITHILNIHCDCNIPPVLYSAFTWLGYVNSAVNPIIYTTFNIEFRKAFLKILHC
# Molecular target: D(2) dopamine receptor (Homo sapiens) (UniProt P14416)
# Experiment: Beta-Arrestin HTS for Positive Allosteric Modulators of the Human D2 Dopamine Receptor: Agonists
# Details: DiscoveRx PathHunter D2 beta-arrestin, luminescence, 90 min; stronger effect = higher value; 100% = 57 uM dopamine signal
# Description: There is great interest in identifying small molecule ligands for G-protein coupled receptors (GPCRs) as nearly 50% of all FDA-approved drugs target these important receptor proteins. […] Amongst the dopamine receptors (DARs), the D2 is arguably one of the most validated drug targets in neurology and psychiatry. For instance, all receptor-based antiparkinsonian drugs primarily work via stimulating the D2 DAR, whereas all FDA-approved antipsychotic agents are antagonists of this receptor. The D2 DAR is also therapeutically targeted in other disorders such as restless legs syndrome, tardive dyskinesia, Tourette's syndrome, and hyperprolactinemia.
# To this end, a miniaturized qHTS screen was developed to be screened against the Molecular Libraries Small Molecule Repository (MLSMR). This assay seeks to identify agonists against the D2 DAR.
# NIH Molecular Libraries Probe Production Network [MLPCN]
# NIH Chemical Genomics Center [NCGC]
# PI Name: David Sibley, National Institutes of Neurological Disorders and Stroke
# DiscoveRx D2 cells were thawed from frozen stock and seeded at 2,100 cells/ 3 uL/well media (DiscoveRx Plating Reagent 2) with MultiDrop Combi dispenser (Thermo Scientific, Logan, UT) onto white tissue culture treated 1536-well Aurora plates (Brooks Automation, Chelmsford, MA) and allowed to attach overnight at 37 deg C, 5% CO2. Next, 23 nL/well of compound solutions in DMSO were added with a pintool transfer (Kalypsis, San Diego, CA). As the positive control, 1 uL/well dopamine (EC100, 57 uM final concentration) diluted in buffer (HBSS + 10 mM HEPES + SMB + 0.1% Tween-20) was dispensed to 1 column of each plate. The rest of the plate was dispensed with buffer only, 1 uL/well as well. The cells were stimulated by compounds or dopamine control for 90 minutes at 37 deg C, 5% CO2, after which 1.5 ul/well of DiscoveRx detection reagent was added with BioRAPTR FRD dispenser. The detection reagent was prepared by mixing of Galacton Star Substrate, Emerald II solution and PathHunter buffer (supplied by the assay kit) together at 1:5:19 proportion accordingly just prior to dispensing. The plates were incubated at ambient temperature for 1 hour and then the luminescent signal was read on ViewLux plate reader (PerkinElmer, Waltham, MA).
row,SMILES,activation
1,CN(C)C1(CNC(=O)c2ccc(Br)cc2)CCCCC1,inactive: -4.2%
2,COc1cc(C(=O)NCC2(N(C)C)CCCCC2)c([N+](=O)[O-])cc1OC,inactive: -4.32%
3,COc1cccc(C(=O)NCC2(N3CCCCC3)CCCCC2)c1,inactive: 0.0873%
4,COc1ccc(Cl)cc1C(=O)NCC1(N(C)C)CCCCC1,inactive: -0.957%
5,O=C(NCC1(N2CCCCC2)CCCCC1)c1cccc(Cl)c1,inactive: -0.598%
6,O=C(OC1CN2CCC1CC2)C(CO)(c1ccccc1)c1ccccc1 (stereo unspecified),inactive: -1.81%
7,COc1ccc(Br)c(C(=O)NCC2(N3CCCCC3)CCCCC2)c1,inactive: -3.45%
8,C=C(C)C#CC(O)(C(=O)OC1CCN(C)CC1)c1ccccc1 (stereo unspecified),inactive: -4.04%
9,CN(C)c1cccc(C(=O)NCC2(N(C)C)CCCCC2)c1,inactive: -2.71%
10,CC(C)Oc1ccc(C(=O)NCC2(N(C)C)CCCCC2)cc1,inactive: 0.378%
11,O=C(OCCN1CCCC1)C(O)(c1ccccc1)c1ccccc1,inactive: -1.87%
12,O=C(NCC1(N2CCCCC2)CCCCC1)c1cc([N+](=O)[O-])ccc1Cl,inactive: -1.01%
13,CN1[C@@H]2CC[C@H]1CC(OC(=O)C(O)(c1ccccc1)c1ccccc1)C2 (stereo partly specified),inactive: -1.92%
14,CC(C)N1C(=O)CC2(CCN(CCOC(=O)C(O)(c3ccccc3)c3ccccc3)CC2)C1=O,inactive: -0.995%
15,CCN(CC)CC(C)C(C)OC(=O)C(O)(c1ccccc1)c1ccccc1 (stereo unspecified),inactive: -3.48%
16,COc1cc(SC)ccc1C(=O)NCC1(N(C)C)CCCCC1,inactive: 2.59%
17,Cc1ccc(C(=O)NCC2(N3CCCCC3)CCCCC2)cc1,inactive: -7.19%
18,Cc1ccccc1C(=O)NCC1(N2CCCCC2)CCCCC1,inactive: -5.39%
19,CN(C)c1ccc(C(=O)NCC2(N(C)C)CCCCC2)cc1,inactive: 0.169%
20,CN(C)C1CCCC1OC(=O)C(O)(c1ccccc1)c1ccccc1 (stereo unspecified),inactive: -4.84%
21,C=CCN1CCN(CCOC(=O)C(O)(c2ccccc2)c2ccccc2)CC1,inactive: 4.3%
22,O=C(NCC1(N2CCCCC2)CCCCC1)c1cc(F)c(F)cc1Cl,inactive: -2.18%
23,CCN1CCCC(OC(=O)C2(O)c3ccccc3C=Cc3ccccc32)C1 (stereo unspecified),inactive: -1.94%
24,Cc1cc(C(=O)NCC2(N3CCCCC3)CCCCC2)ccc1[N+](=O)[O-],inactive: 3.11%
25,O=C(NCC1(N2CCCCC2)CCCCC1)c1cccc(Br)c1,inactive: 0.162%
26,COc1ccc(C(=O)NCC2(N(C)C)CCCCC2)cc1,inactive: 0.101%

# From PubChem BioAssay AID624465 (National Center for Advancing Translational Sciences (NCATS), 2012)
